Data from PubChem BioAssay AID2417 (National Center for Advancing Translational Sciences (NCATS), 2010).
The list shows a part of the results, in another mix than the full data. Some tests of the compounds listed are not included; inactive here does not mean inactive elsewhere. Records with an inconclusive call do not appear. Calls of active or inactive are those of the source.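 The calls were made as follows: active = readout at or below -70, meaning at least 70% loss of cells showing the perinucleolar compartment, a nuclear body marking cancer cells; inconclusive = readout between -30 and a set limit; inactive = the rest.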

test: High Content Assay for Compounds that inhibit the Assembly of the Perinucleolar Compartment; conditions: PC3M PTB-GFP, PNC prevalence imaging, 16 h; at 10 µM; active compounds read low;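 also: plate controls were DMSO wells for no effect and camptothecin positive control wells for full effect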
Excerpt: High Content Assay for Compounds that inhibit the Assembly of the Perinucleolar Compartment NIH Chemical Genomics Center [NCGC] NIH Molecular Libraries Probe Centers Network [MLPCN] MLPCN Grant: MH082371-01A2 Assay Submitter (PI): Sui Huang, Northwestern University, Feinberg School of Medicine, Cell and Molecular Biology, Chicago, Illinois. The perinucleolar compartment (PNC) is a non-membrane-bound nuclear subdomain that is associated with but structurally distinct from the nucleolus. The PNC is a heritable trait, in which the number of PNCs per cell in daughter cells often mimics that of their mother cells. The PNC is heterogeneous in shape, is stable through interphase, disassembles during mitosis, and reassembles in early G1. The PNC is concentrated with newly synthesized RNA polymerase III (pol III) RNAs (MRP RNA, RNAse P H1 RNA, hY RNAs[hY1, 2, 5], Alu RNA, and SRP [7SL] RNA) and RNA binding proteins (nucleolin, PTB, CUG-BP, KSRP, Raver1, Raver2, and Rod). […] Extensive in vitro studies have shown that the PNC is unique to tumor cells and preferentially forms in tumor cells derived from solid tissues. Examination of cancer cell lines from various origins and malignant capacities has shown that PNC prevalence correlates with the malignancy of tumors and has the potential to be developed as a pan-cancer prognostic marker. […] Although the PNC is associated with a DNA locus and a handful of components have been identified, much remains to be investigated regarding the structure and function of the PNC and its mechanistic link to cancer. We have previously shown that PNC prevalence reduction is a valid strategy to identify compounds that can be used to study the structure and function of the PNC. It is necessary, however, to create a screening platform that is able to test a large number of compounds in an automated fashion. […]
PNC High Content Imaging Assay Procedure: 1. […] PNC prevalence was determined using the Multitarget analysis module from InCell Workstation software (V3.5 ) and analysis was run on a quad core workstation using the Incell Developer Toolbox (V1.7). […]

SMILES	activity change (PNC), negative = inhibition
CN(C)c1cccc(C(=O)NCC2(N(C)C)CCCCC2)c1	inactive: -19.4%
CC(C)N1C(=O)CC2(CCN(CCOC(=O)C(O)(c3ccccc3)c3ccccc3)CC2)C1=O	inactive: 61.4%
CN(C)C1CCCC1OC(=O)C(O)(c1ccccc1)c1ccccc1 (stereo not drawn)	inactive: -1.56%
